Broadly, the IC50 is the concentration that inhibits the measured activity by half.

Protein sequences, listed by entry. Tags and fused reporters are not part of them. Lines headed by an entry give the natural chain unless they say otherwise; changes in a name come on top.
UniProt P52333: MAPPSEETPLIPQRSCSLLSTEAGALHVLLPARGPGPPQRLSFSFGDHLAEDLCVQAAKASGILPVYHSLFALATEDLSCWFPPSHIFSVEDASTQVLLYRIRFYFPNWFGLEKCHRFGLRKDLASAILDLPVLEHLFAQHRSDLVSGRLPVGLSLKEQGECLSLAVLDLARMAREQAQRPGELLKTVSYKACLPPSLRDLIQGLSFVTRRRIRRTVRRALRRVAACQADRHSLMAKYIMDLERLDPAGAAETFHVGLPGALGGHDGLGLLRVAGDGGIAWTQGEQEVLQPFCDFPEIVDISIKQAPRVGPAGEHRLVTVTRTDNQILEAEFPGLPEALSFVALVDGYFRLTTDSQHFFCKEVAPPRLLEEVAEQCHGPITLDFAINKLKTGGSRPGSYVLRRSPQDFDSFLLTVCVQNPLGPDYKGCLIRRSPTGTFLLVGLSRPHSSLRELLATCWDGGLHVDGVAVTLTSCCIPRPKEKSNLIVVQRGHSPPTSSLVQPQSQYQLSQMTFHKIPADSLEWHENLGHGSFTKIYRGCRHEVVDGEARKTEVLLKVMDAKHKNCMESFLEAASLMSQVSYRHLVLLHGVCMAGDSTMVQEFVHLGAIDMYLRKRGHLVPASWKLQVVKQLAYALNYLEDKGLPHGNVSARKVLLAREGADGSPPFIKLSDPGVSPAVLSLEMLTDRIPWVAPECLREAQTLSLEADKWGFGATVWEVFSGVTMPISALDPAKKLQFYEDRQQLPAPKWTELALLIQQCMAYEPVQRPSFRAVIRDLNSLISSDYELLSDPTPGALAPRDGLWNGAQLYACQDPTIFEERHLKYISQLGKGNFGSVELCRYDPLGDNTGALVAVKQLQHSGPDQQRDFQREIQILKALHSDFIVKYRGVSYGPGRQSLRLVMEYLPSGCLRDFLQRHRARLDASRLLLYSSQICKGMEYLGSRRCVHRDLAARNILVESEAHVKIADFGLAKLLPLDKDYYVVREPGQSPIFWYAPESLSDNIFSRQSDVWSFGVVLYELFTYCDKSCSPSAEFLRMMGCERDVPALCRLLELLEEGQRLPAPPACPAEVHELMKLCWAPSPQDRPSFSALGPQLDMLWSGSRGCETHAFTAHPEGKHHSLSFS
UniProt P23458: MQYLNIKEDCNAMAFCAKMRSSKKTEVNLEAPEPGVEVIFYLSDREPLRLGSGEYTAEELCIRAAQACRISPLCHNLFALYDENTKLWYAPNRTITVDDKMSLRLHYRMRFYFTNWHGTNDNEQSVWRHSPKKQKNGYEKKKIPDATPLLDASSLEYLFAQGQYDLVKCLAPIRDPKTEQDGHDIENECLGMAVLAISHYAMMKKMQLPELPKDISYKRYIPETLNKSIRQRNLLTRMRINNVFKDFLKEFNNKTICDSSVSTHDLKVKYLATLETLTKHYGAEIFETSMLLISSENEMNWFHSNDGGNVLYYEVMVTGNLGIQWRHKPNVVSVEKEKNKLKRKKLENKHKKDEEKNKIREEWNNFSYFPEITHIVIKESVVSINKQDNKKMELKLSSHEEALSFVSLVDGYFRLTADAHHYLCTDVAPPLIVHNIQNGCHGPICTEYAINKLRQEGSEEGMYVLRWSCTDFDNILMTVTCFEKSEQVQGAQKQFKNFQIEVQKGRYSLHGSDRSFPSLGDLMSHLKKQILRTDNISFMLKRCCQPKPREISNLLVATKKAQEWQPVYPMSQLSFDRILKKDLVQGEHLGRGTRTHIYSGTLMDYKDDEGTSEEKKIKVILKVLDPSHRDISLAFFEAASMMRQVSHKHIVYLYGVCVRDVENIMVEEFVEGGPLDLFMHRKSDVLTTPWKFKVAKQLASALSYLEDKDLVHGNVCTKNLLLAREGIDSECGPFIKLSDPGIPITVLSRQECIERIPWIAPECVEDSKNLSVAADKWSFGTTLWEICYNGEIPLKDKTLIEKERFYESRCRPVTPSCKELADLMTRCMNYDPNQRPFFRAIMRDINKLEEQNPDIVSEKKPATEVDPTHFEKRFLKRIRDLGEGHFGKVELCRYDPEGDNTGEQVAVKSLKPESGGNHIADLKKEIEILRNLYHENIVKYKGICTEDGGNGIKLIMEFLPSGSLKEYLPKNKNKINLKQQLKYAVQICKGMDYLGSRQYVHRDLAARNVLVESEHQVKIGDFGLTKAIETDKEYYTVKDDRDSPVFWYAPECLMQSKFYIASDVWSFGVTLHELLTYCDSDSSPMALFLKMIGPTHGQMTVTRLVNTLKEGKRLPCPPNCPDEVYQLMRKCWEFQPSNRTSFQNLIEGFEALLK

One assay deals with GST-JAK3 enzyme (Homo sapiens (Human), UniProt P52333). The assay is described as follows: JAK3 Kinase Assay Protocol (Caliper). It is filed as biochemical. The settings on record: JAK3 kinase inhibition; read-out: LLE_JAK3_FB (IC50). Here is the method:
JAK3 Kinase Assay Protocol (Caliper)
(§1) The assay reactions were performed in U-bottom 384-well plates. […] The reaction was initiated by the combination of GST-JAK3 enzyme with substrates and test compounds. The reactions were incubated at room temperature for 3 hours and terminated by adding 60 μl of 35 mM EDTA to each sample. Each reaction mixture was analyzed on the Caliper LabChip 3000 (Caliper, Hopkinton, Mass.) by electrophoretic separation of the fluorescent substrate and phosphorylated product. […] Compounds were dissolved at 10 mM in dimethylsulfoxide (DMSO) and evaluated at eleven concentrations. IC50 values were derived by non-linear regression analysis.

The next assay has as its target GST-JAK1 enzyme (Homo sapiens (Human), UniProt P23458). The assay is described as follows: JAK1 Kinase Assay Protocol. It counts as biochemical. The settings on record: JAK1 kinase inhibition; read-out: LLE_JAK1 (IC50). Here is the method:
JAK1 Kinase Assay Protocol
as §1, with “GST-JAK1” for “GST-JAK3”

The structures appear in SMILES notation.

In the case of `CS(=O)(=O)N1C[C@H](CF)[C@H](Nc2c(C(N)=O)cnn3cc(-c4ccc(C(F)(F)F)nc4)cc23)C1` (racemic) [Example 275, (+/−)-Cis-4-((-4-(fluoromethyl)-1-(methylsulfonyl)pyrrolidin-3-yl)amino)-6-(6-(trifluoromethyl)pyridin-3-yl)pyrrolo[1,2-b]pyridazine-3-carboxamide], the half-maximal inhibitory concentration (IC50) on GST-JAK3 enzyme stood at 9.7 nM.
For `COc1ccc(-c2cc3c(N[C@@H]4CN(C(=O)CC#N)C[C@@H]4C)c(C(N)=O)cnn3c2)cn1` [Example 53], the IC50 on GST-JAK3 enzyme was found to be 1.4 nM.
As for `COc1ccc(-c2cc3c(N[C@H]4CN(C(=O)CC#N)C[C@H]4C)c(C(N)=O)cnn3c2)cn1` [Example 54], the IC50 was 133 nM on GST-JAK3 enzyme and 110 nM at GST-JAK1 enzyme.
In the case of `COc1ccc(-c2cc3c(N[C@@H]4CCN(C(=O)[C@@H](C)O)CC4(C)C)c(C(N)=O)cnn3c2)cn1` [Example 56], at GST-JAK1 enzyme, the IC50 is 8 nM.

(Values after patent US8987268B2, “Pyrrolopyridazine JAK3 inhibitors and their use for the treatment of inflammatory and autoimmune diseases” (Bristol-Myers Squibb Company, priority 2011, dated 2015).)
